The target of one assay is CDK2/CycA (Homo sapiens, UniProt P24941). As to the kind of experiment: 33PanQinase protein kinase activity assay. In kind it is biochemical. The conditions noted are these: recombinant kinase, 1 µM ATP.
Another assay has as its target CDK4/CycD1 (Homo sapiens, UniProt P11802). As to the kind of experiment: 33PanQinase protein kinase activity assay. Type of assay: biochemical. The conditions noted are these: recombinant kinase, 1 µM ATP.

By UniProt entry, the sequences of proteins in these tests, tags left out. Where a name states a change or a piece, a line headed by the entry shows the natural chain unless it says otherwise.
UniProt P11802: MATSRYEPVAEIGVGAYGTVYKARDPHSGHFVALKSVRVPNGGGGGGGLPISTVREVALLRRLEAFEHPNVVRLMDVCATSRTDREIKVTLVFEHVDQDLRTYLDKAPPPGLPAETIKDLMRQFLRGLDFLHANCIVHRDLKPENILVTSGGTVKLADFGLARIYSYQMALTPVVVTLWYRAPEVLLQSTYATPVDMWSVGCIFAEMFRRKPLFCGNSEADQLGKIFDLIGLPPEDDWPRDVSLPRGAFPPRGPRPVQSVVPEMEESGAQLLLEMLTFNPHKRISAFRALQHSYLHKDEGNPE

The structures appear in SMILES notation.

What is called IC50 is the concentration needed to halve the response being measured.

Consider `COc1cc(-c2nc(-c3c[nH]c4ccccc34)c[nH]c2=O)cc(OC)c1OC` [Compound 5, 5-(1H-indole-3-yl)-3-(3,4,5-trimethoxyphenyl)pyrazin-2(1H)-one], for which the IC50 on CDK2/CycA and on CDK4/CycD1 was above 100 µM in each case.

Source of the values: paper PMC3806475, “Marine Derived Hamacanthins as Lead for the Development of Novel PDGFRβ Protein Kinase Inhibitors” (Marine Drugs, 2013).
